These are literature values, as cited in publication PMC7176432, “Single-molecule functional anatomy of endogenous HER2-HER3 heterodimers” (eLife, 2020).

This data set has as its target eGFP (Aequorea victoria) [GFP: P42212]. The note with it: cited from earlier work.

As to eGFP (from UniProt P42212), the Kd (as a rule, the concentration at which binding is half-saturated) is 110 µM.
